These results are taken from US6610270B1, “In vivo determination of metabolic function for use in therapy management” (Xanthus Life Sciences, Inc., priority 1998, dated 2003).

Series [1] relates to α-ketoacid decarboxylase (KAD). The settings on record: n = 3.
For series [2] the following is noted: oral ingestion, in two hours.

Regarding N-acetyl-ABU [Aminobutyrate Metaprobe], the “Metabolic Response Index (MRI), BASAL” value in series [1] (2 mg/kg oral, fasting adult male) is on record as 145 +/− 24 (n = 3) MicroMol/kg/hr. Also, the “Metabolic Response Index (MRI), MET+” value in series [1] (after 100 mg/kg methionine) is given as 105 +/− 26 (n = 3) MicroMol/kg/hr. Moreover, the “LI, load tolerance index (BASAL minus MET+)” value in series [1] is listed as 40 +/− 9 (n = 3) MicroMol/kg/hr. Moreover, in series [2], the “cleared from the system” value is “more than 70%”.
